# Patent EP2951180B1, “2,6,7,8 SUBSTITUTED PURINES AS HDM2 INHIBITORS” (Merck Sharp & Dohme Corp., priority 2013, dated 2014)
# Protein sequences, listed by entry. Tags and fused reporters are not part of them. Residues count along the entry.
# UniProt Q00987, 17-125: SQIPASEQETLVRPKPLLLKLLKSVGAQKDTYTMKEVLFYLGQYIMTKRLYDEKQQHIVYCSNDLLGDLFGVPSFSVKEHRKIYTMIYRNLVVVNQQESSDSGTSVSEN
# Target: T1, HDM2 (Homo sapiens, UniProt Q00987)
# T1 construct: Thioredoxin (N); made in house; host or cells: E. coli strain BL21(DE3)Rosetta
# Experiment: HDM2 FRET assay (inhibition of binding of FITC labeled p53-pocket peptide to HDM2)
# Details: 0.5 nM HDM2 (residues 17 to 125), 3nM peptide, two hour incubation at room temperature
row,Structure (SMILES),IC50 [µM]
1,"C[C@@H](Nc1nc([S+](C)[O-])nc2nc(N3CCCCC3c3ccccc3)n(C[C@H]3CC[C@H](C)CC3)c12)C1CCC1 (single isomer, unassigned) [Example 14.11]",0.417
2,"C[C@@H](Nc1nc([S+](C)[O-])nc2nc(N3CCCCC3c3ccccc3)n(C[C@H]3CC[C@H](C)CC3)c12)C1CCC1 (single isomer, unassigned) [Example 14.12]",0.0259
3,"C[C@@H](Nc1nc([S+](C)[O-])nc2nc(N3CCCCC3c3ccccc3)n(C[C@H]3CC[C@H](C)CC3)c12)C1CCC1 (single isomer, unassigned) [Example 14.13]",0.645
4,"C[C@@H](Nc1nc([S+](C)[O-])nc2nc(N3CCCCC3c3ccccc3)n(C[C@H]3CC[C@H](C)CC3)c12)C1CCC1 (single isomer, unassigned) [Example 14.14]",0.186

# Same assay, conditions: Table 9
row,Structure (SMILES),IC50 [µM]
1,"C[C@@H](Nc1nc(-c2noc(=O)[nH]2)nc2nc(N3CCOCC3c3ccccc3)n(Cc3ccc(C(F)(F)F)c(F)c3)c12)C1CCC1 (single isomer, unassigned) [Example 9.55]",0.00305
2,"C[C@@H](Nc1nc(-c2noc(=O)[nH]2)nc2nc(N3CCOCC3c3ccccc3)n(Cc3ccc(C(F)(F)F)c(F)c3)c12)C1CCC1 (single isomer, unassigned) [Example 9.56]",0.00225

# Same assay, conditions: Table 11
row,Structure (SMILES),IC50 [µM]
1,"CC(c1ccccn1)N(C)c1nc2nc(-c3noc(=O)[nH]3)nc(N[C@H](C)C3CCC3)c2n1C[C@H]1CC[C@H](C)CC1 (single isomer, unassigned) [Example 11.24]",0.0116
2,"CC(c1ccccn1)N(C)c1nc2nc(-c3noc(=O)[nH]3)nc(N[C@H](C)C3CCC3)c2n1C[C@H]1CC[C@H](C)CC1 (single isomer, unassigned) [Example 11.25]",0.0105
3,"CC(Nc1nc2nc(-c3noc(=O)[nH]3)nc(N[C@H](C)C3CCC3)c2n1C[C@H]1CC[C@H](C)CC1)c1cnccn1 (single isomer, unassigned) [Example 11.91]",0.00367
4,"CC(Nc1nc2nc(-c3noc(=O)[nH]3)nc(N[C@H](C)C3CCC3)c2n1C[C@H]1CC[C@H](C)CC1)c1cnccn1 (single isomer, unassigned) [Example 11.93]",0.0119

# Same assay, conditions: Table 18
row,Structure (SMILES),IC50 [µM]
1,"Cc1cccc(-c2nc3nc(C(=O)O)nc(N[C@H](C)C4CC4)c3n2CC2CCC(C(F)(F)F)CC2)c1 (single isomer, unassigned) [Example 18.27]",0.338
2,"Cc1cccc(-c2nc3nc(C(=O)O)nc(N[C@H](C)C4CC4)c3n2CC2CCC(C(F)(F)F)CC2)c1 (single isomer, unassigned) [Example 18.28]",0.386
3,"CC([C@H]1CC[C@H](C)CC1)n1c(N2CCOC[C@H]2C)nc2nc(-c3noc(=O)[nH]3)nc(-c3cccc(Cl)c3)c21 (single isomer, unassigned) [Example 18.33]",0.00314
4,"CC([C@H]1CC[C@H](C)CC1)n1c(N2CCOC[C@H]2C)nc2nc(-c3noc(=O)[nH]3)nc(-c3cccc(Cl)c3)c21 (single isomer, unassigned) [Example 18.34]",0.00562
5,"CC([C@H]1CC[C@H](C)CC1)n1c(N2CCOC3CCCC32)nc2nc(-c3noc(=O)[nH]3)nc(N[C@H](C)C3CCC3)c21 (single isomer, unassigned) [Example 18.38]",0.0166
6,"CC([C@H]1CC[C@H](C)CC1)n1c(N2CCOC3CCCC32)nc2nc(-c3noc(=O)[nH]3)nc(N[C@H](C)C3CCC3)c21 (single isomer, unassigned) [Example 18.41]",0.00257
7,"CC([C@H]1CC[C@H](C)CC1)n1c(N2CCOC3CCCC32)nc2nc(-c3noc(=O)[nH]3)nc(N[C@H](C)C3CCC3)c21 (single isomer, unassigned) [Example 18.42]",0.00577
8,"Cc1cccc(-c2nc3nc(C(=O)O)nc(N[C@H](C)C4CC4)c3n2CC2CCC(C(F)(F)F)CC2)c1 (stereo partly drawn) [Example 18.26, 6-{[(1R)-1-cyclopropylethyl]amino} -8-(3-methylphenyl)-7-{[4-(trifluoromethyl)cyclohexyl]methyl}-7H-purine-2-carboxylic acid]",0.297

# Same assay, conditions: Table 21
row,Structure (SMILES),IC50 [µM]
1,"CC(c1nc2nc(-c3noc(=O)[nH]3)nc(N[C@H](C)C3CCC3)c2n1C[C@H]1CC[C@H](C)CC1)C1CCCCC1 (single isomer, unassigned) [Example 21.22]",0.00781
2,"CC(c1nc2nc(-c3noc(=O)[nH]3)nc(N[C@H](C)C3CCC3)c2n1C[C@H]1CC[C@H](C)CC1)C1CCCCC1 (single isomer, unassigned) [Example 21.23]",0.00182
3,"C[C@@H](Nc1nc(-c2noc(=O)[nH]2)nc2nc(C3CCOCC3c3ccccc3)n(C[C@H]3CC[C@H](C)CC3)c12)C1CCC1 (single isomer, unassigned) [Example 21.28]",0.00335
4,"C[C@@H](Nc1nc(-c2noc(=O)[nH]2)nc2nc(C3CCOCC3c3ccccc3)n(C[C@H]3CC[C@H](C)CC3)c12)C1CCC1 (single isomer, unassigned) [Example 21.29]",0.0202

# Same assay, conditions: Table 22
row,Structure (SMILES),IC50 [µM]
1,"C[C@@H](Nc1nc(-c2noc(=O)[nH]2)nc2nc(C(C)(O)c3ccccc3F)n(C[C@H]3CC[C@H](C)CC3)c12)C1CCC1 (single isomer, unassigned) [Example 22.3]",0.00721
2,"C[C@@H](Nc1nc(-c2noc(=O)[nH]2)nc2nc(C(C)(O)c3ccccc3F)n(C[C@H]3CC[C@H](C)CC3)c12)C1CCC1 (single isomer, unassigned) [Example 22.4]",0.0412
3,"C[C@@H](Nc1nc(-c2noc(=O)[nH]2)nc2nc(C(C)(F)c3ccccn3)n(C[C@H]3CC[C@H](C)CC3)c12)C1CCC1 (single isomer, unassigned) [Example 22.8]",0.0013
4,"C[C@@H](Nc1nc(-c2noc(=O)[nH]2)nc2nc(C(C)(F)c3ccccn3)n(C[C@H]3CC[C@H](C)CC3)c12)C1CCC1 (single isomer, unassigned) [Example 22.9]",0.00283
5,"C[C@@H](Nc1nc(-c2noc(=O)[nH]2)nc2nc(C(O)CO)n(C[C@H]3CC[C@H](C)CC3)c12)C1CCC1 (single isomer, unassigned) [Example 22.17]",0.148
6,"C[C@@H](Nc1nc(-c2noc(=O)[nH]2)nc2nc(C(O)CO)n(C[C@H]3CC[C@H](C)CC3)c12)C1CCC1 (single isomer, unassigned) [Example 22.18]",0.0918
7,"CC(c1cscn1)c1nc2nc(-c3noc(=O)[nH]3)nc(N[C@H](C)C3CCC3)c2n1C[C@H]1CC[C@H](C)CC1 (single isomer, unassigned) [Example 22.26]",0.00143
8,"CC(c1cscn1)c1nc2nc(-c3noc(=O)[nH]3)nc(N[C@H](C)C3CCC3)c2n1C[C@H]1CC[C@H](C)CC1 (single isomer, unassigned) [Example 22.27]",0.0143
9,"C[C@@H](Nc1nc(-c2noc(=O)[nH]2)nc2nc(C(C)(O)c3cccc(F)c3)n(C[C@H]3CC[C@H](C)CC3)c12)C1CCC1 (single isomer, unassigned) [Example 22.35]",0.047
10,"C[C@@H](Nc1nc(-c2noc(=O)[nH]2)nc2nc(C(C)(O)c3cccc(F)c3)n(C[C@H]3CC[C@H](C)CC3)c12)C1CCC1 (single isomer, unassigned) [Example 22.37]",0.277
